Laboratory results: article PMC2010280 (British Journal of Cancer, 1980)

Conditions: radioimmunoassay
From the text: MATERIALS AND METHODS Mice.-6-8-week-old male DBA/2 mice weighing 20-25 g were purchased from the Jackson Laboratory, Bar Harbor, Maine. They were maintained on normal laboratory chow and acid water ad. lib. Mouse leukaemia.-P388 lymphocytic leu- kaemia was supplied by Dr Daniel Griswold, Southern Research Institute, Birmingham, Alabama, and serially transplanted as ain ascites tumour at weekly intervals ([…] every 7 days in McCoy's 5a medium. Gibco, Grant Island, NY). […] Ill addition to an un- treated control group, 5 animals were implanted with minipumps containing 0.900 NaCl. Seven days after cell injection, the mice of the untreated control and treated groups were killed, femurs isolated, and marrow cells washed out with McCoy's 5a medium. Appro- priate dilutions of the leukaemic femoral marrow cells were injected i.v. into groups of 10 DBA/2 mice. Eight days later, the recipient mice were killed, spleens removed and fixed in Bouin's solution. The number of surface nacroscopic, leukaemic colony-forming units (LCFU-S) were counted with a dissecting microscope, and the fraction of surviving LCFU per femur determined. Pharmacokinetic studies.-On Day 0, 106 P388 ascites cells were injected i.v. into groups of 30 DBA/2 mice. […] For the C.i.p. group, blood samples from at least 3 mice were col- lected in heparinized tubes by heart puncture every day for 6 days. […] At least 3 mice were killed at each sampling time. Blood samples were centrifuged at 2,000 rev/min and 4?C for 10 min and the plasmas separated and immediately stored at -20?C. […] Data analysis-Statistical analysis of the differences betwNeen LCFU dose-response (i.e., drug dose vs fraction of CFU surviving per femur) curves for the two different treat- ments used the analysis of covariance method (Snedecor & Cochran, 1979). […] I. Intravenous administration. Cancer Chemother. Pharmacol., 1, 177. […] II. Intra- cavitary administration. Cancer Chemother. Pharmacol., 2, 127. BAKER, L. H., OPIPARI, M. I., WILSON, H., BOTTOMLEY, R. & COLTMAN, C. A., JR. […] Obstet. Gynecol., 52, 146. BARRANCO, S. C. […] Ed. Carter, Crooke & Umezawa. […]

Substance: bleomycin
- total plasma AUC for 6 days (continuous i.p. infusion (osmotic minipump), 8 u/kg/day for 6 days): 89.0 mu.h/ml
- total 6-day plasma AUC (intermittent i.p. bolus, 8 u/kg/day for 6 days, from data obtained on Day 5): 90.8 mu.h/ml
- terminal-phase plasma t1/2 (intermittent i.p. bolus, 8 u/kg/day, sampled 5-120 min after the dose on Day 5, single exponential fit): 15 min
